# Antibody variant affinities, Ab-14 light chain, assay B

Binding partner: SARS-CoV-2 spike HR2 peptide, sequence PDVDLGDISGINAS.

Parent scFv Ab-14: VH joined to VL by three GGGGS repeats. Changes lie in the light chain CDRs alone.
VH: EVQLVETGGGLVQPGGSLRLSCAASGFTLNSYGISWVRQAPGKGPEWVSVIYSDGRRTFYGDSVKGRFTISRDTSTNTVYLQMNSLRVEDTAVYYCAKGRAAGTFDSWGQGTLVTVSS
VL: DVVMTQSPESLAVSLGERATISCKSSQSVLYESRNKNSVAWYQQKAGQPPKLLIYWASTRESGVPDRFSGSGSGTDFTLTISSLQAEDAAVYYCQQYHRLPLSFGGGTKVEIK

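The parent was found by panning a naive human phage display library on the peptide. Designed CDR sequences, proposed from the first random library and measured here. Several design methods are mixed in this list. In AlphaSeq, yeast of one mating type display the scFv and yeast of the other type display the target. Pairs that bind mate more often; barcode pairs of the diploids are counted by sequencing. Scores were corrected for input abundance and mapped to Kd with protein pairs of known affinity run in the same pool. Mating was done six times.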

Variants are written as CDR1, CDR2 and CDR3 of the light chain (limits as in the source). Parent: KSSQSVLYESRNKNSVA, WASTRES, QQYHRLPLS.
This list holds designs with at most six substitutions.
Each Kd is an estimate from the mating assay, the geometric mean of the replicates in which the pair was seen; lower is stronger.
"nd" means that the variant was in the library but no mating with the target was seen in any replicate; the authors take this as a sign of poor binding, and no number exists.
A sequence measured in both rounds can read differently, since the two assays cover different ranges.
Nonspecific signal, from three strains lacking the peptide, appeared in 4% of pairings of all light chain designs, centred on 430 nM (5% of these signals below 38 nM); values are not corrected for it. Also given: how often the same scFv was detected with the empty control strains.
In the paper, a design with two or fewer of six values counts as a poor binder.

With KLSQSWLYESRNKWSVA | NASTRES | QQYHRLPLS the result was 2.4 nM (6 of 6 replicates; controls 0 of 18). For KLQQFVEYESRNKNSVA | HASTRLS | QQYHRLPLS, the assay gave 4.2 nM (6 of 6 replicates; controls 0 of 18). Variant KLMQSDLYESRNKNSVA | HASLRED | QQYHRLPLS showed 4.4 nM (6 of 6 replicates; controls 0 of 18). With KLSQSELYEERNKNSVA | NASTRES | QQYHRLPLS the result was 520 pM (6 of 6 replicates; controls 0 of 18). Variant KSPQSVLYESRNKNSVA | QASTRES | QQYHRLPLS showed 4.3 nM (6 of 6 replicates; controls 0 of 18). Variant KFPQSQLYESRNKNSVA | NASQRES | QQYHRLPLS showed 2.5 nM (6 of 6 replicates; controls 1 of 18).

For KFQQSMLYESRKKNQVA | WASTRES | QQYHRLPLS, the assay gave nd (0 of 6 replicates; controls 0 of 18). For KSSQSVLGEQRNCNSVA | DISTRES | QQYHRLPLS, the assay gave 1.7 nM (6 of 6 replicates; controls 0 of 18). Variant KSSQSNLYESAKKNNVA | WASTRES | QQYHGLPLS gave 3.4 µM (2 of 6 replicates; controls 0 of 18). With KLPQSVLYESRNKNAVA | AASTRES | QQYHRLPLS the result was 550 pM (6 of 6 replicates; controls 1 of 18). Variant KQSQSVLYESRNKNSVA | DASTRES | QQYHRLPLA gave 1.4 nM (6 of 6 replicates; controls 1 of 18). For KMSQSHLYESRNKNSVA | DASTRES | QQYHRLPLS, the assay gave 4.0 nM (6 of 6 replicates; controls 2 of 18).

Variant KLSQSHLYESRNKNNVA | GASTRES | QQYHRLPLS showed 390 pM (6 of 6 replicates; controls 3 of 18). Variant KSSQSVLYESRNKNSVA | WASTREA | QQYHRLPLF showed 66 nM (3 of 6 replicates; controls 1 of 18). With KLQQSVLYESRNCNSVA | NASTRCS | QQYHRLPLS the result was 1.2 nM (6 of 6 replicates; controls 2 of 18). For KLQQSVLYGSRNKNSVA | EASTRES | QQYHRLPLS, the assay gave 1.5 nM (6 of 6 replicates; controls 1 of 18). Variant KLQQSDLYESRNKNSVA | NASTRLS | QQYHRLPLS showed 620 pM (6 of 6 replicates; controls 0 of 18). Variant KSGQGVLYESRNKNSVA | GASTPES | QQYHRLPLS gave 3.7 nM (6 of 6 replicates; controls 0 of 18).

With KFEQSELYESRNKNSVA | EASQRES | QQYHRLPLS the result was 340 pM (6 of 6 replicates; controls 1 of 18). Variant KFSQSVLYESRDSNSVA | NASTRES | QQYHRLPLS gave 1.5 nM (6 of 6 replicates; controls 0 of 18). With RSSQSVLYESRNKNSVA | HCSTRES | QLYHYLPLS the result was nd (0 of 6 replicates; controls 0 of 18). Variant KSSQSVLYESRNKNSVA | AASTRES | QQYCRLPLS gave 2.4 nM (6 of 6 replicates; controls 3 of 18). Variant KLSQSFLYESRNKNAVA | NASTRES | QQYHRLPLS showed 670 pM (6 of 6 replicates; controls 0 of 18). For KSSQSVLAEERQKNSVA | QASTRES | QQYHELPLS, the assay gave 110 nM (5 of 6 replicates; controls 1 of 18).

With KLPQSVLYGSRNKNSVA | EASTRES | QQYHRLPLS the result was 510 pM (6 of 6 replicates; controls 1 of 18). With KSSQSVLYESRNKDSVA | WASTRES | QQYHRLPLS the result was 530 nM (3 of 6 replicates; controls 1 of 18). Variant KLSQSELYESRNKNSVA | GGSTRES | QQYHRLPLS gave 560 pM (6 of 6 replicates; controls 2 of 18). With KLSPSELYESRNKNSVA | NASTRES | QQYHRLPLS the result was 1.2 nM (6 of 6 replicates; controls 0 of 18). For KLSQSMLYESRNKNSVA | NASTRMQ | QQYHRLPLS, the assay gave 450 pM (6 of 6 replicates; controls 4 of 18). With KSSISALYESRNENSVA | EASTREQ | QQYHRLPLS the result was 13 nM (6 of 6 replicates; controls 2 of 18).

Variant KFSQSVLYESRNKNSVA | NASLRES | QQYHRLPLS gave 3.6 nM (6 of 6 replicates; controls 0 of 18). Variant KSSQDVLYETRNKNSVA | GASTREE | QQYIRPPLS showed 39 nM (1 of 6 replicates; controls 1 of 18). With KLSQSVLYESRNKNSVA | GASQRES | QQYHRLPLS the result was 570 pM (6 of 6 replicates; controls 3 of 18). Variant KFSQWVLYESRTKNSVA | NASQRES | QQYHRLPLS gave 2.6 nM (6 of 6 replicates; controls 2 of 18). For KSSQSVLNESTNKNSVA | AASTRVS | QQYHRLPLS, the assay gave 11 nM (6 of 6 replicates; controls 0 of 18). Variant KNSISVLYESRNKNSVA | WASTRED | QQVHRLPCS showed nd (0 of 6 replicates; controls 1 of 18).

With KSLQSVDYESRNKNSVA | WASTRES | QQYHRLPLS the result was 110 nM (4 of 6 replicates; controls 1 of 18). For KLEQSIPYESRNKNSVA | NASTRES | QQYHRLPLS, the assay gave 810 pM (6 of 6 replicates; controls 0 of 18).

The first 4 entries again:

CDR-L1	CDR-L2	CDR-L3	Kd (apparent)	detected	signal with controls
KLSQSWLYESRNKWSVA	NASTRES	QQYHRLPLS	2.4 nM	6/6	0/18
KLQQFVEYESRNKNSVA	HASTRLS	QQYHRLPLS	4.2 nM	6/6	0/18
KLMQSDLYESRNKNSVA	HASLRED	QQYHRLPLS	4.4 nM	6/6	0/18
KLSQSELYEERNKNSVA	NASTRES	QQYHRLPLS	520 pM	6/6	0/18

Values reported by Li et al. 2023, doi:10.1038/s41467-023-39022-2 (FLAb copy).